Assays:
[1] = target: T1, RecQ-like DNA helicase BLM (Homo sapiens, UniProt P54132); experiment: Inhibition of His-tagged BLM (unknown origin) expressed in Escherichia coli BL21 (DE3) assessed as reduction in BLM helicase unwinding activity using 5'-biotin labeled forked-DNA as substrate after 1 hr by PAGE analysis
Procedure, shortened: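 BLM642-1296 (His-tagged, E. coli BL21(DE3)) preincubated with ligand (1.0, 10, 50 μM; ≤1% DMSO) for 1 h at 4 °C. Reaction: 8 nM annealed 5′-biotin duplex forked DNA, 32 nM BLM, 2 mM ATP, 0.1% BSA, 1 h. Run on 20% native PAGE at 4 °C, blotted, detected by chemiluminescence; ssDNA band quantified; IC50 by non-linear regression.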

Protein sequences, listed by entry. Tags and fused reporters are not part of them. Lines headed by an entry give the natural chain unless they say otherwise; changes in a name come on top.
UniProt P54132: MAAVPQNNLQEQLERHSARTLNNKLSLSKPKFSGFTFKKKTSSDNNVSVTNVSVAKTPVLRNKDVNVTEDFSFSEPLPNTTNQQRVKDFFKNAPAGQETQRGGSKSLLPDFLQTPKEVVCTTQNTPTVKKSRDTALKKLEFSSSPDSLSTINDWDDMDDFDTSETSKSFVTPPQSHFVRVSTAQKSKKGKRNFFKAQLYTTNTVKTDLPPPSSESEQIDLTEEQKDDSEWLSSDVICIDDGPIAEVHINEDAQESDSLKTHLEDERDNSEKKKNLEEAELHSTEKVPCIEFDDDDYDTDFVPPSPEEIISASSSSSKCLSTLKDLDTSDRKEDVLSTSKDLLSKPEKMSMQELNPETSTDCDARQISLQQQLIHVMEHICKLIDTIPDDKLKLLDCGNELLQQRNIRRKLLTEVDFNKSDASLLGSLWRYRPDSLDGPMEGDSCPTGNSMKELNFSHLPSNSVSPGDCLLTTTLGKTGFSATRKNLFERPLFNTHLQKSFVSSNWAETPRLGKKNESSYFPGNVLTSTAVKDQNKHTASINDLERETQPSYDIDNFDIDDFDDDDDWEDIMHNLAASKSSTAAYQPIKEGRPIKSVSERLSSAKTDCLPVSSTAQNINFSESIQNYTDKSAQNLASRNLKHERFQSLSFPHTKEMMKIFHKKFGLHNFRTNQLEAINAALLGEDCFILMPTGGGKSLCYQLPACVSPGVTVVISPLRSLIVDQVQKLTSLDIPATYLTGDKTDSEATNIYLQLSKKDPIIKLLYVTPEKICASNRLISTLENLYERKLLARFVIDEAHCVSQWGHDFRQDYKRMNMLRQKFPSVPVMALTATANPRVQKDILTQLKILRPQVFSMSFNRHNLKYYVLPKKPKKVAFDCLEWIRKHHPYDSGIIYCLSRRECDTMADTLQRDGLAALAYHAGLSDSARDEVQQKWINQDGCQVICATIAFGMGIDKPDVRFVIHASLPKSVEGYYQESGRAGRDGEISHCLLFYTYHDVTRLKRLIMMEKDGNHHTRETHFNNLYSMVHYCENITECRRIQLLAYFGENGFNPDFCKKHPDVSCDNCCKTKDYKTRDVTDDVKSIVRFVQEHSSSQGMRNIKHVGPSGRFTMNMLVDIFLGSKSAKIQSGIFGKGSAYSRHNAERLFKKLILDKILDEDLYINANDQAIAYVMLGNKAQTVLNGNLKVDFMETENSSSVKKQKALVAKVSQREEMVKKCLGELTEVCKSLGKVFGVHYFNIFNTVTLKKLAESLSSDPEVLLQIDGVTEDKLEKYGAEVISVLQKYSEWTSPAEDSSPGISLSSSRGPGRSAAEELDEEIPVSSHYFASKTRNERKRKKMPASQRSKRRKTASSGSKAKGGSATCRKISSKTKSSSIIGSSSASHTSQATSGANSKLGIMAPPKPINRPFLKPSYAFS

[2] = target: T1, RecQ-like DNA helicase BLM; experiment: Inhibition of 5'-biotin labeled duplex forked-DNA binding to BLM (unknown origin) assessed as increase in unbound DNA levels after 1 hr by ELISA
Procedure, shortened: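 Biotinylated forked DNA (50 nM) immobilised on streptavidin plates overnight at 4 °C. BLM or mutant (100 nM final) premixed with serially halved ligand in 3% BSA blocking buffer, ≤1% DMSO, 1 h on ice. Applied to the blocked plate for 1 h at 37 °C. Bound BLM detected with anti-BLM and HRP secondary, TMB, A450; Hill fit.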

IC50 [1]: 2.15 µM | IC50 [2]: 34.8 µM
Structure (SMILES): O=C(Nc1ccc(F)c(C(F)(F)F)c1)Nc1nnc(-c2ccncc2)s1

From ChEMBL document CHEMBL4316604, “Discovery of Isaindigotone Derivatives as Novel Bloom's Syndrome Protein (BLM) Helicase Inhibitors That Disrupt the BLM/DNA Interactions and Regulate the Homologous Recombination Repair” (J Med Chem, 2019)
